The text below walks through data of patent US11547130B2, “Nanocomposite bacteriostatic material and a preparation method and an application thereof” (Tianjin University of Science and Technology, priority 2019, dated 2023).

The test system of this data set is Bacillus subtilis. The data set can be described thus: Thermostability: antibacterial circle experiment after heat treatment under neutral condition. Conditions: pH 7; heat treatment at 60° C. for 30 min; read out by antibacterial circle. Type of data set: cell-based. As to the method: The pH value of each material in the above groups was regulated to 7 with HCl and subjected to the heat treatment at 60° C. for 30 min; and with the use of an antibacterial circle experimental method, the antibacterial effect was determined according to a diameter of an antibacterial circle.
Bacillus subtilis was cultured for overnight in a shake flask, and a bacteria solution having a concentration of 10^8 CFU/mL was selected as a seed solution for later use. The seed solution was inoculated as per 2% of inoculum size to an LB semi-solid culture medium sterilized at about 50° C. under a sterile condition, and mixed quickly and uniformly to pour into a culture dish, 20 mL being poured into each culture dish. Upon solidification, three holes were punched on the culture dish by a puncher, and different antibacterial samples were respectively added to each hole, an added amount of each group being 150 μL. Upon the completion, each culture dish was placed into a constant temperature incubator at 37° C., and cultured for 16 h to observe and measure a size of the antibacterial circle.

nisin: the thermostability result is “easily inactivated”.
